Data on one compound can be found in patent publication US20250000863A1, “COMBINATION THERAPIES OF KRAS G12D INHIBITORS WITH SOS1 INHIBITORS” (MIRATI THERAPEUTICS, INC., priority 2021, published 2025).

In the experiment the test system is Panc 02.03 cells harboring a KRas G12D mutation. Nature of the experiment: Panc0203 TGI-43 xenograft tumor volume study. The experiment is classed as in vivo, nude/nude mice. Particulars: BI-3406 50 mg/kg BID daily, alone or combined; for Average Tumor Volumes: MRTX1133 30 mg/kg BID 2x/week, i.p., 5 mice per group. An excerpt: Experimental Procedures. […] When the tumors reached ˜300 mm^3 four treatment groups were established with five mice per group.

Regarding `COc1cc2nc(C)nc(N[C@H](C)c3cc(N)cc(C(F)(F)F)c3)c2cc1O[C@H]1CCOC1` [BI-3406], the tumor growth inhibition (Day 22, MRTX1133 30 mg/kg BID twice per week) worked out at 28%. Besides, the “Average Tumor Volumes” value was 331.672 mm^3 (Study Day 1); 349.632 mm^3 (Study Day 4); 400.406 mm^3 (Study Day 8); 481.264 mm^3 (Study Day 11); 547.852 mm^3 (Study Day 15); 730.884 mm^3 (Study Day 18). The “Average Tumor Volumes” value (Study Day 22) turned out to be 892.786 mm^3.
